Reference: PubChem BioAssay AID2524 (Sanford-Burnham Center for Chemical Genomics, 2010)
The entries are a selection whose mix differs from that of the whole data set. The source made the active and inactive calls.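 How the source made its calls: active means activation factor of the enzyme at least 2-fold when tested at 20 µM; inactive means the rest.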

Protein sequences, listed by entry. Tags and fused reporters are not part of them. Lines headed by an entry give the natural chain unless they say otherwise; changes in a name come on top.
UniProt P09923: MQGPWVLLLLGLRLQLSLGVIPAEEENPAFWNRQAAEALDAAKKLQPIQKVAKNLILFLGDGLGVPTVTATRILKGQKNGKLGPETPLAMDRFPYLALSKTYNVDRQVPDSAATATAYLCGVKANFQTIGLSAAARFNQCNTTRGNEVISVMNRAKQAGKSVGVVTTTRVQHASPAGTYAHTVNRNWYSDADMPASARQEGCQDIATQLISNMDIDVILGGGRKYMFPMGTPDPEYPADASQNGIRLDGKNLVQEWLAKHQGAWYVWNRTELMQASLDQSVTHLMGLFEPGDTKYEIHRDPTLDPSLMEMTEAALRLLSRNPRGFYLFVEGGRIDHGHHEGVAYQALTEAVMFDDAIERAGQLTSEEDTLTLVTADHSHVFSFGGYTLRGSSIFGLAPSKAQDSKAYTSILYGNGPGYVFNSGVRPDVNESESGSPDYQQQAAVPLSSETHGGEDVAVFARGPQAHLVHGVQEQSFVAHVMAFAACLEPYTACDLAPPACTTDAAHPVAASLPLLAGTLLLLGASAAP

These molecules were tested against Intestinal-type alkaline phosphatase (Homo sapiens) (UniProt P09923) (assay: human IAP activators, primary screen, biochemical, luminescence, uHTS (AID 2524)). Conditions: purified human IAP, CDP-Star luminescence, 30 min; at 10 µM; active compounds read high; 1 = vehicle-only enzyme, 0 = enzyme-free background.
For `COc1ccc(C2=NCC(CBr)S2)cc1` (configuration not stated), the activation factor was inactive: 1.06.
`Cc1ccc(NP(=O)(Oc2ccccc2)Oc2ccccc2)nc1` was tested, and the activation factor was inactive: 1.3.
With `O=[N+]([O-])c1cc([N+](=O)[O-])c(CCNc2ccccc2)c([N+](=O)[O-])c1` the activation factor was inactive: 0.912.
In the case of `CCc1nc2c(n1)c1c(non1O)c1c2no[n+]1[O-]`, the activation factor is reported as inactive: 0.802.
In the case of `CC(=O)N1C2C3N(C(C)=O)C1C1N(C(C)=O)C(C(N1C(C)=O)N3C(C)=O)N2C(C)=O`, the activation factor is reported as inactive: 1.01.
For `O=[N+]([O-])c1cccc2n[nH]nc12`, the activation factor was inactive: 0.889.
In the case of `CCN(/C(=N/P(=O)(N1CCOCC1)N1CCOCC1)N1CCOCC1)c1ccc(OC)cc1`, the activation factor is reported as inactive: 0.951.
`Nc1ccc([As](=O)(O)c2ccc(N)cc2)cc1` was tested, and the activation factor was inactive: 0.992.
For `C[N+]1=C2C=CC=CC=C2SC12C([N+](=O)[O-])=CC([N+](=O)[O-])=C[C-]2[N+](=O)[O-]` (configuration not stated), the activation factor was inactive: 1.18.
`CC1CCN(C(=O)Oc2c(Cl)cc(Cl)c3cccnc23)CC1` was tested, and the activation factor was inactive: 0.866.
With `CC(C)=N/N=C(\N)N[N+](=O)[O-]` the activation factor was inactive: 1.17.
With `CN(C)C(=O)OCCc1n(C)cc[n+]1C` the activation factor was inactive: 0.985.
`O=C(Nc1cc([As](=O)(O)O)ccc1O)c1ccccc1` was tested, and the activation factor was inactive: 0.785.
With `O=[N+]([O-])c1ncn(CCn2ncnc2[N+](=O)[O-])n1` the activation factor was inactive: 1.03.
For `CC(C)(C)C(=O)NC(Sc1ccncn1)C(Cl)(Cl)Cl` (configuration not stated), the activation factor was inactive: 1.1.
For `O=[N+]([O-])c1cccc(NC2=NCC(CBr)S2)c1` (configuration not stated), the activation factor was inactive: 0.905.
In the case of `O=P(Nc1nc2ccc(Cl)cc2s1)(c1ccccc1)c1ccccc1`, the activation factor is reported as inactive: 1.21.
With `O=C(O)c1ccccc1[As](=O)(O)O` the activation factor was inactive: 0.972.
`CC(=O)Nc1ccc([As](=O)(O)O)cc1` was tested, and the activation factor was inactive: 0.892.
For `CCOP(=O)(Nc1ccccc1)OCC`, the activation factor was inactive: 1.06.
In the case of `Cc1cc(SC(NC(=O)c2ccc(F)cc2)C(Cl)(Cl)Cl)ncn1` (configuration not stated), the activation factor is reported as inactive: 0.91.
With `CN(C(=O)Cc1ccc(Cl)c(Cl)c1)[C@H]1CCCC[C@@H]1N1CCCC1` the activation factor was inactive: 1.02.
`Cc1ccc(NP(=O)(Oc2ccccc2F)Oc2ccccc2F)nc1` was tested, and the activation factor was inactive: 0.915.
`O=[N+]([O-])c1cc([N+](=O)[O-])c(CCN2CCOCC2)c([N+](=O)[O-])c1` was tested, and the activation factor was inactive: 0.789.
With `CCN(N=Nc1nonc1N)c1nonc1N` the activation factor was inactive: 0.978.
With `CN(C(=O)Cc1ccc(Cl)c(Cl)c1)[C@H]1CCCC[C@H]1N1CCCC1` the activation factor was inactive: 0.922.
With `Cc1ccc(N/C(=N/P(=O)(N2CCOCC2)N2CCOCC2)N2CCOCC2)cc1` the activation factor was inactive: 0.985.
